Here are results for 43 compounds from PubChem BioAssay AID1768 (National Center for Advancing Translational Sciences (NCATS), 2009).

Sequences of proteins named here, by UniProt entry; tags and fusion partners are left off.
UniProt O00255, whole entry: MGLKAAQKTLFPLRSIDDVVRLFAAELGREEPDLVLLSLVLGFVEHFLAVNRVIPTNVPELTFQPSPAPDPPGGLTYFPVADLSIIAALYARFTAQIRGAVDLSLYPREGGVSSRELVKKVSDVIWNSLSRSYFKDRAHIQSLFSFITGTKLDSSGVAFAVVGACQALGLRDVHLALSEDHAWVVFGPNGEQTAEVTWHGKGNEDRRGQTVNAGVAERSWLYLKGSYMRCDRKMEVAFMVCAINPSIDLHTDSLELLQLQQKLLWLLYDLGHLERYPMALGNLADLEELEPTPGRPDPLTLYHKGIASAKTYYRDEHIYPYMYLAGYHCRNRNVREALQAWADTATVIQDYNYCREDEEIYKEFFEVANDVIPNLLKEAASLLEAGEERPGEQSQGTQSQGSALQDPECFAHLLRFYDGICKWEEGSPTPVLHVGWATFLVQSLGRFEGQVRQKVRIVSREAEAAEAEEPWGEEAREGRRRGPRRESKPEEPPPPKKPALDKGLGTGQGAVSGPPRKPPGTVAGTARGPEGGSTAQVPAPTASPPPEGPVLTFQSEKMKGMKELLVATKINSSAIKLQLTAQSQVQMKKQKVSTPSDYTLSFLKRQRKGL
UniProt Q03164, whole entry partner: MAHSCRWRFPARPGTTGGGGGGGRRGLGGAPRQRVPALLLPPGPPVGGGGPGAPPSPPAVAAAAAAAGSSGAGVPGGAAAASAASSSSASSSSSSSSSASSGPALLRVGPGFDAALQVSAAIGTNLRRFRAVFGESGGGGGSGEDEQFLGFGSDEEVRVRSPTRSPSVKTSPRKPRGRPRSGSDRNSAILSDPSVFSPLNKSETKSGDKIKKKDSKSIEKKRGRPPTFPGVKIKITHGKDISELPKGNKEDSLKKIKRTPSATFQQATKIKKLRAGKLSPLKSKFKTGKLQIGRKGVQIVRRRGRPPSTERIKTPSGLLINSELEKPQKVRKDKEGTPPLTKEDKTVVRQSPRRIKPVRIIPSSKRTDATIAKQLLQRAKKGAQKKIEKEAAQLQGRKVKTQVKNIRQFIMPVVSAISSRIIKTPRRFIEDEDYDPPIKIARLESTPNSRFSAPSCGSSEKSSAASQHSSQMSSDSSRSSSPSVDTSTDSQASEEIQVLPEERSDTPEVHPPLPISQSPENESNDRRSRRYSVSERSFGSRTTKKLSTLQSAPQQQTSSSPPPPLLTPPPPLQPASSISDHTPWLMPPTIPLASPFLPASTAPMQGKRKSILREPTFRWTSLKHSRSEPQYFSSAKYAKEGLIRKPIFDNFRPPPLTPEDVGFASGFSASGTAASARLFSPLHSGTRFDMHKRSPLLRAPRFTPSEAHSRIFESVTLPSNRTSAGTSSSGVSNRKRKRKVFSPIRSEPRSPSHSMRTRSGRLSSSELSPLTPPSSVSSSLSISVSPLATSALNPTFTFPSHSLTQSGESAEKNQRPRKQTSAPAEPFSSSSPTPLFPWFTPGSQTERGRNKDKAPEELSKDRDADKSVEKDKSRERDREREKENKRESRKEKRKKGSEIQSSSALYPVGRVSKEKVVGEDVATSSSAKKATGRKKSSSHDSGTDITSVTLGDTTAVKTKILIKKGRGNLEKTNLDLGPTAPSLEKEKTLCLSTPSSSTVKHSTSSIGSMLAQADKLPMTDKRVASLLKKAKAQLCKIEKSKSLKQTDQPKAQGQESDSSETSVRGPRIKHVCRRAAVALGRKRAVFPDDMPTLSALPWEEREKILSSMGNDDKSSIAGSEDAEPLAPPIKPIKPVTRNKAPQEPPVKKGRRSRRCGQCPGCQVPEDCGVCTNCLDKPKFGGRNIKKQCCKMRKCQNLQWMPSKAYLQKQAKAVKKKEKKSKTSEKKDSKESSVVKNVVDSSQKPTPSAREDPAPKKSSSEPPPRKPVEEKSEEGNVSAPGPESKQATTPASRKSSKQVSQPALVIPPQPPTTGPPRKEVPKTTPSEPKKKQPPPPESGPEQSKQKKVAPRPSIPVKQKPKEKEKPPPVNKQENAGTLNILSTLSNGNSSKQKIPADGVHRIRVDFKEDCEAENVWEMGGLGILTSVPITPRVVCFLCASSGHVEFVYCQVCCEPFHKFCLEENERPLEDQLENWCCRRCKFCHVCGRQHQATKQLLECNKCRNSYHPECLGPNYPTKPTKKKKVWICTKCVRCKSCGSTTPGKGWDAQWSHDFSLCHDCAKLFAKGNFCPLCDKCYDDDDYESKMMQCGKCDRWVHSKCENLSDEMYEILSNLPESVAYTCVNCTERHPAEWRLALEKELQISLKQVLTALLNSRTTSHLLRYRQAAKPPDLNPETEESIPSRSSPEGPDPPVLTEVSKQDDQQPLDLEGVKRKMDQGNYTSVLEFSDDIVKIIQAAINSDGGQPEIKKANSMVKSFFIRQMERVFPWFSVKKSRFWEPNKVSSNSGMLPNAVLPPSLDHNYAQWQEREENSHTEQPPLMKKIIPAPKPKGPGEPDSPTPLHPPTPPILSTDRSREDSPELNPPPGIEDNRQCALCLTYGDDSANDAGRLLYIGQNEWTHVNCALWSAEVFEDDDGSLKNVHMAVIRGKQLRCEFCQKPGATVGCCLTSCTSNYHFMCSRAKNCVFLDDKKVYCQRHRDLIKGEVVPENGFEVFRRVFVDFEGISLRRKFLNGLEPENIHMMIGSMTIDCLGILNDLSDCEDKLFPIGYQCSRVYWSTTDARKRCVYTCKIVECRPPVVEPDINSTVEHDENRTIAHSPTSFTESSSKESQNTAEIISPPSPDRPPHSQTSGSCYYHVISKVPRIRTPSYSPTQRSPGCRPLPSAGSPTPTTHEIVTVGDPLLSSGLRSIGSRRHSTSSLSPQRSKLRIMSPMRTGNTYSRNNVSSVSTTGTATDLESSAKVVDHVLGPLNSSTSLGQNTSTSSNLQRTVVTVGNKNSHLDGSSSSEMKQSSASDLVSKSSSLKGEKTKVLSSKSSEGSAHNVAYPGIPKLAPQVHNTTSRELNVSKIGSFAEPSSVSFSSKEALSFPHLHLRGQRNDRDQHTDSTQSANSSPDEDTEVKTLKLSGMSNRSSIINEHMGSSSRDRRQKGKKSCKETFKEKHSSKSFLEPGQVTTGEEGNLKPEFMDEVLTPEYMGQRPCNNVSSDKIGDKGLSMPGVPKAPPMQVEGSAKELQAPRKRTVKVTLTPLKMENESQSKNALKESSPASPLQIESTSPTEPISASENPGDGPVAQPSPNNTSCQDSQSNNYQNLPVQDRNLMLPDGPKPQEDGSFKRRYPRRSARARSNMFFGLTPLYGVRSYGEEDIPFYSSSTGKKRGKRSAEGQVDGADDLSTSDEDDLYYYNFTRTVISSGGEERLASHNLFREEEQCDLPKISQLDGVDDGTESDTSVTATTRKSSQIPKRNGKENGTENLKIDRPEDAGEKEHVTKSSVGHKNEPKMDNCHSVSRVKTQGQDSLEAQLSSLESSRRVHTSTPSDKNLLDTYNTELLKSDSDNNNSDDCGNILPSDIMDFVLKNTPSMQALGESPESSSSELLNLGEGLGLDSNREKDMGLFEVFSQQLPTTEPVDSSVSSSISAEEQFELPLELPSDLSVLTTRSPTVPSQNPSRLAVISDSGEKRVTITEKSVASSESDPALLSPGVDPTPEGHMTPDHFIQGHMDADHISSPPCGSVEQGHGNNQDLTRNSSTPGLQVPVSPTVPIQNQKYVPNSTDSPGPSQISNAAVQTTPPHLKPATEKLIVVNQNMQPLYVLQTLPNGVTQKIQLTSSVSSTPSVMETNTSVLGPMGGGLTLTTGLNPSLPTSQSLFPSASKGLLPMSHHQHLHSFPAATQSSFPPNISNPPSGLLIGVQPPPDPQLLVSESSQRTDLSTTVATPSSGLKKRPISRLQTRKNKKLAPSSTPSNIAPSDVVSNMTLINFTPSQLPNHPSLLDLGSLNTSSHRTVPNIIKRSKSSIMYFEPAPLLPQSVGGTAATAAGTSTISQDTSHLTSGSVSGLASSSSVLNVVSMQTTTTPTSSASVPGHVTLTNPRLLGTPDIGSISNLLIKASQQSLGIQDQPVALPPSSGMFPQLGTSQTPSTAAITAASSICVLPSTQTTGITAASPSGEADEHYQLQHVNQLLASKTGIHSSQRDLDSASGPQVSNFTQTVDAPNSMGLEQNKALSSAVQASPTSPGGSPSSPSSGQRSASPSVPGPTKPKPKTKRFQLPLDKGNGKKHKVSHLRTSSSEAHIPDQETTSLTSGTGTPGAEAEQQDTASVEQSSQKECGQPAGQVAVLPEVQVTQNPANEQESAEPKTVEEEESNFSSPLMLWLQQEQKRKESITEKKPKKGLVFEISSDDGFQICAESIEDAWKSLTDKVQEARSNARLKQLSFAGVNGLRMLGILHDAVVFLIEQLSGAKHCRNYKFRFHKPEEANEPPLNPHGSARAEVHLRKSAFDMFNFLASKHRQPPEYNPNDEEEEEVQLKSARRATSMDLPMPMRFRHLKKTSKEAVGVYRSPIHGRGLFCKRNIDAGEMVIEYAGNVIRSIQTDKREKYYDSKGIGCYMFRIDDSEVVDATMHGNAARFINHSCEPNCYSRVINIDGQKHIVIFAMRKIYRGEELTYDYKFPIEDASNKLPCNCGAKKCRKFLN

This is a selection; strong and weak results do not stand in their true shares. Inconclusive results are not listed. Calls of active or inactive are those of the source. Calls come from the whole dose curve; as a rule, active = well fitted inhibition curve with a large enough effect in the polarisation, with a control signal flat (not every such curve was filed as active); inconclusive = small, poorly fitted or top-dose-only effect, or effect the other way, or a change in a side signal; inactive = no such curve, though single readings can be large or run the other way; the % refers to the polarisation.

In the assay the target is Menin (Homo sapiens) (UniProt O00255). In words: qHTS Assay for Inhibitors Targeting the Menin-MLL Interaction in MLL Related Leukemias: Competition With Texas Red Labeled MLL-derived Mutant Peptide. Note: % of control where 0% means no effect. The settings on record: fluorescence polarization; at 61.6 µM (top of the series). For orientation: Quantitative high-throughput screening tests each substance at several concentrations.
Turning to `COc1ccc(NC2CCN(C(=O)OC(C)(C)C)CC2)cc1`, the FP activity change, negative = inhibition is inactive: 0.964%.
Under `CN1CCN(CCOC(=O)C(O)(c2ccccc2)c2ccccc2)CC1` stands inactive: -8.53%; under `O=C(NCC1(N2CCOCC2)CCCCC1)c1cc(=O)[nH]c2ccccc12`, inactive: -5.35%; under `COc1cc(C(=O)NCC2(N3CCCCC3)CCCCC2)ccc1OC(F)F`, inactive: 3.78%.
As for `O=C(NCC1(N2CCCCC2)CCCCC1)c1cccc(C(F)(F)F)c1`, the FP activity change, negative = inhibition was inactive: 9.12%.
Consider `O=C(NCC1(N2CCCCC2)CCCCC1)c1cccc([N+](=O)[O-])c1`, for which the FP activity change, negative = inhibition is inactive: 4.83%.
Next, `CCN1CCC(Nc2ccc(Cl)cc2)CC1`: inactive: -3.29%; `N#CC1(Nc2ccccc2)CCN(CCc2ccccc2)CC1`: inactive: -8.94%; `O=C(NCC1(N2CCCCC2)CCCCC1)c1ccc(OC(F)F)cc1`: inactive: -4.77%.
Next, `CCCOc1ccc(C(=O)NCC2(N(C)C)CCCCC2)cc1OC`: inactive: -12.9%.
Under `COc1cc(OC)c(C(=O)NCC2(N(C)C)CCCCC2)cc1OC` stands inactive: 12.7%; under `CN(C)c1cccc(C(=O)NCC2(N3CCCCC3)CCCCC2)c1`, inactive: 17.1%.
As to `CC(C)c1ccc(NC2CCN(C(=O)OC(C)(C)C)CC2)cc1`, the FP activity change, negative = inhibition was inactive: -17.4%.
In the case of `CCOC(=O)N1CCC(Nc2ccc(OC)cc2)CC1`, the FP activity change, negative = inhibition was inactive: -0.743%.
For `O=C(OC1CN2CCC1CC2)C1c2ccccc2Oc2ccccc21` (stereo not drawn), the FP activity change, negative = inhibition is inactive: -14.2%.
Next, `O=C(NCC1(N2CCOCC2)CCCCC1)c1cc2ccccc2o1`: inactive: 0.343%.
In the case of `CSc1ccccc1C(=O)NCC1(N2CCCCC2)CCCCC1`, the FP activity change, negative = inhibition was inactive: -18.2%.
Next, `O=C(NCC1(N2CCCCC2)CCCCC1)c1ccc(=O)[nH]c1`: inactive: -0.792%; `COc1ccc(C(=O)NCC2(N3CCCCC3)CCCCC2)c(OC)c1OC`: inactive: -14.3%.
On to `CCOC(=O)N1CCC(Nc2cccc(C)c2)CC1`, for which the FP activity change, negative = inhibition is inactive: -7.16%.
Next, `COc1cc(C(=O)NCC2(N(C)C)CCCCC2)ccc1OC(F)F`: inactive: -0.706%; `O=C(NCC1(N2CCCCC2)CCCCC1)c1ccc(F)cc1`: inactive: -0.644%; `CCOC(=O)N1CCC(Nc2ccc(F)cc2)CC1`: inactive: -15.7%.
`COc1ccc(NC2CCN(CCc3ccccc3)CC2)c(OC)c1`: the FP activity change, negative = inhibition was inactive: -7.15%.
Under `CN(C)c1ccc(C(=O)NCC2(N3CCCCC3)CCCCC2)cc1` stands inactive: 3.65%; under `CCN1CCC(Nc2cccc(F)c2)CC1`, inactive: 4.38%; under `Fc1ccccc1NC1CCN(Cc2ccccc2)CC1`, inactive: -1.43%.
Next, `CN1CCC(Nc2ccc(Cl)cc2)CC1`: inactive: -3.06%; `CCC(CO)(C(=O)OC1CN2CCC1CC2)c1ccccc1` (stereo not drawn): inactive: -0.418%; `COc1cc(OC)cc(C(=O)NCC2(N3CCOCC3)CCCCC2)c1`: inactive: -2.87%.
With `CCCOc1ccc(C(=O)NCC2(N(C)C)CCCCC2)cc1`, the FP activity change, negative = inhibition is inactive: 8.32%.
Under `CC(C)(C)OC(=O)N1CCC(Nc2ccccc2)CC1` stands inactive: -16.2%.
Under `O=C(O)C1(Nc2ccccc2)CCN(Cc2ccccc2)CC1` stands inactive: -13.3%; under `CCOc1ncccc1C(=O)NCC1(N2CCOCC2)CCCCC1`, inactive: -0.737%; under `CN1CCC(Nc2ccc(F)c(Cl)c2)CC1`, inactive: 1.01%.
Next, `O=C(OC1CN2CCC1CC2)C1c2ccccc2C=Cc2ccccc21` (stereo not drawn): inactive: -2.69%; `N/C(=N\O)c1c(N)no[n+]1[O-]`: inactive: -2.17%.
As for `CCOC(=O)N1CCC(Nc2ccc(C)cc2)CC1`, the FP activity change, negative = inhibition was inactive: -25%.
Next, `COc1ccc(C(=O)NCC2(N3CCOCC3)CCCCC2)cc1OC`: inactive: 3.74%; `c1ccc(CN2CCC(Nc3ccccc3)CC2)cc1`: inactive: -9.63%.
On to `CCCN1CCC(Nc2cc(OC)cc(OC)c2)CC1`, for which the FP activity change, negative = inhibition is inactive: -12.5%.
Under `CN(C)C1(CNC(=O)c2cccc(C#N)c2)CCCCC1` stands inactive: -7.56%; under `N#Cc1ccc(C(=O)NCC2(N3CCCCC3)CCCCC2)cc1`, inactive: -11.7%.
